Data reported in ChEMBL document CHEMBL5316269, “Rational Design of a New RXR Agonist Scaffold Enabling Single-Subtype Preference for RXRα, RXRβ, and RXRγ” (J Med Chem, 2023).

The chains behind the UniProt entries cited, without tags or fusion partners. Where a name states a change or a piece, a line headed by the entry shows the natural chain unless it says otherwise.
UniProt P10276, whole entry: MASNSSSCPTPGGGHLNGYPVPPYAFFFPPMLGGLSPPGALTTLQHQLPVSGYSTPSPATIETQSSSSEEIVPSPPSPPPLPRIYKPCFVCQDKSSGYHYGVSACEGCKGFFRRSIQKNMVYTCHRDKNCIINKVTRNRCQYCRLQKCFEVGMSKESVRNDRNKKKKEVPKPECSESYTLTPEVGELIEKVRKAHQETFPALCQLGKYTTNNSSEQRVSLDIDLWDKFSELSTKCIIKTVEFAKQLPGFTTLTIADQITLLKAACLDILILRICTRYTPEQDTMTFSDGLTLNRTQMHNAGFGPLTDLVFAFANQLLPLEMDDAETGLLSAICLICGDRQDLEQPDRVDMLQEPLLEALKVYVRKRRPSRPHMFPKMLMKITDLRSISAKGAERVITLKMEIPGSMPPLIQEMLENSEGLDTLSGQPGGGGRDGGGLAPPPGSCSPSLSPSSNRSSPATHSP
UniProt P10826, whole entry: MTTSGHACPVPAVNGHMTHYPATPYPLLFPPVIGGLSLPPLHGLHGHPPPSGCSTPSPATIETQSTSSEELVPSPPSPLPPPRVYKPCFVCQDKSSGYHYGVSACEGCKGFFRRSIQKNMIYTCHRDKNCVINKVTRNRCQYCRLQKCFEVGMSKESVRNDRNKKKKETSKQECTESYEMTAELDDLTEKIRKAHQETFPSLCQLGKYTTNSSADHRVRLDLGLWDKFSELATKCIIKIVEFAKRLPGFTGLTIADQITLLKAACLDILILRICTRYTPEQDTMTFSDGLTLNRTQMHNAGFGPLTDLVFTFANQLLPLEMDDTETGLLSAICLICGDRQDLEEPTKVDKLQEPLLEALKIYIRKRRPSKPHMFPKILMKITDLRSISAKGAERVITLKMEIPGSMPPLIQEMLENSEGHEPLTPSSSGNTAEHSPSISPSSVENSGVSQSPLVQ
UniProt P13631, whole entry: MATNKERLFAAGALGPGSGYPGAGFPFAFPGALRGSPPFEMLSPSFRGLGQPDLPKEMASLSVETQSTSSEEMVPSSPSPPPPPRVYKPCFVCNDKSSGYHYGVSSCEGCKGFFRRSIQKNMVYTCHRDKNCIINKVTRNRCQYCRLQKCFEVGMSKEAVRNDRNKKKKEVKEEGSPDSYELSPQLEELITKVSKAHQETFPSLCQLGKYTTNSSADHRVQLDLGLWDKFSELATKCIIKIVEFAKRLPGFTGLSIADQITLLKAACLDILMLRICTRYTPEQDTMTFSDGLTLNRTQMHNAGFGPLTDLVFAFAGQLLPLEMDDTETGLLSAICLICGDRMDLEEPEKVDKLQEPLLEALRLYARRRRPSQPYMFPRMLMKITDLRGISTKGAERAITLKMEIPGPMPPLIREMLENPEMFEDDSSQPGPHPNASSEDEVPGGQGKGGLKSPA
UniProt P37231: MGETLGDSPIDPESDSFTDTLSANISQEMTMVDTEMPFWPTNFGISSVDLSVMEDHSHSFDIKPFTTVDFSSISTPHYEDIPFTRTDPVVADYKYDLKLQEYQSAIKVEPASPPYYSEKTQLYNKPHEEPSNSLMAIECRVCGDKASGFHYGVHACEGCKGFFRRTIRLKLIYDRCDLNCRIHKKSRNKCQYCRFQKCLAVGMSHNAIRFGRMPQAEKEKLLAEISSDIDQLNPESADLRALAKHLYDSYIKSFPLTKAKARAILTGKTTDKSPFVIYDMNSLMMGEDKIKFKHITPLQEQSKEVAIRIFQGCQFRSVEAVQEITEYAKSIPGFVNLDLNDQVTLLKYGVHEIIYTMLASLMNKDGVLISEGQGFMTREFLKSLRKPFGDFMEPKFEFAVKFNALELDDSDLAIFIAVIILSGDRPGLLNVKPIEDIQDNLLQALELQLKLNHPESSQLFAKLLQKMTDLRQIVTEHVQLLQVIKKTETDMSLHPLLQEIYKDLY
UniProt P55055, whole entry: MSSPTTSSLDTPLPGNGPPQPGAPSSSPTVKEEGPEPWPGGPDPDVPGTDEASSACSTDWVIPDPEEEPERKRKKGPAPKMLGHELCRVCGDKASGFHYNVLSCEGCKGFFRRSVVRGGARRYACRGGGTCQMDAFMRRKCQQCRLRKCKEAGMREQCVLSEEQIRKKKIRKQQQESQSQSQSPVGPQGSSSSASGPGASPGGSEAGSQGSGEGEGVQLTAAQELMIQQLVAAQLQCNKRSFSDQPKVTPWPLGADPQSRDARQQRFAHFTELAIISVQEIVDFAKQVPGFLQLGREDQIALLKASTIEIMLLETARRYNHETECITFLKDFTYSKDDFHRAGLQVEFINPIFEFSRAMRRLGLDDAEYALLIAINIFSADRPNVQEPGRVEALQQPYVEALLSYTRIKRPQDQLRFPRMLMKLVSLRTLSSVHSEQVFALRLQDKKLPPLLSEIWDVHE

Tests used:
[1] = target: T1, Thyroid hormone receptor beta (Homo sapiens) (UniProt P10828); assay: Agonist activity at human GAL4-fused THRbeta LBD expressed in human HEK293T cells cotransfected with pFR-Luc and pRL-SV40 assessed as increase in luciferase activity at 1 uM incubated for 16 hrs by Dual-Glo luciferase assay relative to control; type: cell-based
T1 sequence (whole entry): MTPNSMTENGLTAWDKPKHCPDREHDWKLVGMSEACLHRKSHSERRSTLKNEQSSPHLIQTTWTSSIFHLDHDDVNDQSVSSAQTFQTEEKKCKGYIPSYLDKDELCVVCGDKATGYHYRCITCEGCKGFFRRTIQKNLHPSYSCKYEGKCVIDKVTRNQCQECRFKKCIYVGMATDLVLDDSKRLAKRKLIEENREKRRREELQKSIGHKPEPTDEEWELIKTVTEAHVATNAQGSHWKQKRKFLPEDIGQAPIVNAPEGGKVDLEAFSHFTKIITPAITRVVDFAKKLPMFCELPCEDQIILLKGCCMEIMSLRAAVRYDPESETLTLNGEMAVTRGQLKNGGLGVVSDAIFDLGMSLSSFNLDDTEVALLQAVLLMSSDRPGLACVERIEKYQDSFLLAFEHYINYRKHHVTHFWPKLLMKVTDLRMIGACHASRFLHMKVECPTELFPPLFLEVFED

[2] = target: Retinoic acid receptor alpha (Homo sapiens) (UniProt P10276); assay: Agonist activity at human GAL4-fused RARalpha LBD expressed in human HEK293T cells cotransfected with pFR-Luc and pRL-SV40 assessed as increase in luciferase activity at 1 uM incubated for 16 hrs by Dual-Glo luciferase assay relative to control; type: cell-based
[3] = target: Retinoic acid receptor beta (Homo sapiens) (UniProt P10826); assay: Agonist activity at human GAL4-fused RARbeta LBD expressed in human HEK293T cells cotransfected with pFR-Luc and pRL-SV40 assessed as increase in luciferase activity at 1 uM incubated for 16 hrs by Dual-Glo luciferase assay relative to control; type: cell-based
[4] = target: Retinoic acid receptor gamma (Homo sapiens) (UniProt P13631); assay: Agonist activity at human GAL4-fused RARgamma LBD expressed in human HEK293T cells cotransfected with pFR-Luc and pRL-SV40 assessed as increase in luciferase activity at 1 uM incubated for 16 hrs by Dual-Glo luciferase assay relative to control; type: cell-based
[5] = target: Peroxisome proliferator-activated receptor gamma (Homo sapiens) (UniProt P37231); assay: Agonist activity at human GAL4-fused PPARgamma LBD expressed in human HEK293T cells cotransfected with pFR-Luc and pRL-SV40 assessed as increase in luciferase activity at 1 uM incubated for 16 hrs by Dual-Glo luciferase assay relative to control; type: cell-based
[6] = target: T2, Vitamin D3 receptor (Homo sapiens) (UniProt P11473); assay: Agonist activity at human GAL4-fused VDR LBD expressed in human HEK293T cells cotransfected with pFR-Luc and pRL-SV40 assessed as increase in luciferase activity at 1 uM incubated for 16 hrs by Dual-Glo luciferase assay relative to control; type: cell-based
T2 sequence (whole entry): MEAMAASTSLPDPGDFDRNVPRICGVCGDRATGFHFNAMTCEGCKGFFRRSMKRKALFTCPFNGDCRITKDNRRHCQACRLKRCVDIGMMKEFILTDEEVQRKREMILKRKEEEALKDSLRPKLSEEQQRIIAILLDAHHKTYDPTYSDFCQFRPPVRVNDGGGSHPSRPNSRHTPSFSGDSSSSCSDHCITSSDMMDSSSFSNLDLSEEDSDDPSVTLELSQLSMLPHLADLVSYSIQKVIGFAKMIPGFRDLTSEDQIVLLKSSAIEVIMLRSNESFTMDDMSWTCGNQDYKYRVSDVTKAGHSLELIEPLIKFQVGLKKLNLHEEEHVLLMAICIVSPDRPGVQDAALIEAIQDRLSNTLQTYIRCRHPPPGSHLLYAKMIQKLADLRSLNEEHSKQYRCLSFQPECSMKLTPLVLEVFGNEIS

[7] = target: Oxysterols receptor LXR-beta (Homo sapiens) (UniProt P55055); assay: Agonist activity at human GAL4-fused LXRbeta LBD expressed in human HEK293T cells cotransfected with pFR-Luc and pRL-SV40 assessed as increase in luciferase activity at 1 uM incubated for 16 hrs by Dual-Glo luciferase assay relative to control; type: cell-based
[8] = target: T3, Bile acid receptor (Homo sapiens) (UniProt Q96RI1); assay: Agonist activity at human GAL4-fused FXR LBD expressed in human HEK293T cells cotransfected with pFR-Luc and pRL-SV40 assessed as increase in luciferase activity at 1 uM incubated for 16 hrs by Dual-Glo luciferase assay relative to control; type: cell-based
T3 sequence (whole entry): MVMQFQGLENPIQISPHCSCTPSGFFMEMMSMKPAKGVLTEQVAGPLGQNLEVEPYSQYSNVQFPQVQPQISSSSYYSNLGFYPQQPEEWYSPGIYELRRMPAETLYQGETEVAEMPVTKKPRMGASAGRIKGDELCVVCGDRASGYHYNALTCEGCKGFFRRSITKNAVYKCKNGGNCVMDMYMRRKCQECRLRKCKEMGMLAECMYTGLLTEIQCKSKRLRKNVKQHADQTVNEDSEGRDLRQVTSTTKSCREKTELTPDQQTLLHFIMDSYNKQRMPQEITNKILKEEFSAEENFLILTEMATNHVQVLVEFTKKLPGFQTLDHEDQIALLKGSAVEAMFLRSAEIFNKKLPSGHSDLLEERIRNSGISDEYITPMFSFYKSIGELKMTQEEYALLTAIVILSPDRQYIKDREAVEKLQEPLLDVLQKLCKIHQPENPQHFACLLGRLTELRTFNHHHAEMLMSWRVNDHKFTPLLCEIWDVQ

[9] = target: T4, Retinoic acid receptor RXR-alpha (Homo sapiens) (UniProt P19793); assay: Agonist activity at human RARalpha in human Adipose tissue derived mesenchymal stem cells assessed as increase in adipogenesis at 1 uM incubated for 13 days with media exchanged every 48-72 hrs in presence of pioglitazone by Oil-red O staining based analysis; settings: Adipose tissue derived mesenchymal stem cell, filed as agonist, time 13.0 day
T4 sequence (whole entry): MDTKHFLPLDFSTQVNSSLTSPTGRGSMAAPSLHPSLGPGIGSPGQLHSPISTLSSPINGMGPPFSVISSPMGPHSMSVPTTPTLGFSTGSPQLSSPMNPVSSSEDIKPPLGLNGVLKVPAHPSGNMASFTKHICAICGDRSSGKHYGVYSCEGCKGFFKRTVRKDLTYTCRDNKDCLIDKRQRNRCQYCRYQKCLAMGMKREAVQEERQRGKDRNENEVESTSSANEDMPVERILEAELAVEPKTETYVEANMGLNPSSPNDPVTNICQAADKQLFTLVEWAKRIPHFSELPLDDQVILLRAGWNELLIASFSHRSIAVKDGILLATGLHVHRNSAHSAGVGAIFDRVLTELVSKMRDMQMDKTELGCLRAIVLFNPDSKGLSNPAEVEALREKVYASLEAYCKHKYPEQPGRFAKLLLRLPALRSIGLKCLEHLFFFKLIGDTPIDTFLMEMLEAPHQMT

Cc1cc(COc2ccc(C)c3c2CCC3)ccc1CCC(=O)O
Activity [1]: 1% | Activity [2]: 1% | Activity [3]: 1% | Activity [4]: 1% | Activity [5]: 3% | Activity [6]: 3% | Activity [7]: 2% | Activity [8]: 1% | Activity [9]: Active

Calls of active or inactive are those of the source. The calls are words filed in the database; no cut-off is given here.
